From patent US20230167101A1, “NOVEL INHIBITORS OF HISTONE […] P300/CBP FOR CANCER THERAPY” (BAYLOR COLLEGE OF MEDICINE, priority 2020, published 2023)

Chains of the proteins cited; added tags and fusions are not shown. Residues count along the entry.
UniProt Q09472, 1195-1673 limits assumed: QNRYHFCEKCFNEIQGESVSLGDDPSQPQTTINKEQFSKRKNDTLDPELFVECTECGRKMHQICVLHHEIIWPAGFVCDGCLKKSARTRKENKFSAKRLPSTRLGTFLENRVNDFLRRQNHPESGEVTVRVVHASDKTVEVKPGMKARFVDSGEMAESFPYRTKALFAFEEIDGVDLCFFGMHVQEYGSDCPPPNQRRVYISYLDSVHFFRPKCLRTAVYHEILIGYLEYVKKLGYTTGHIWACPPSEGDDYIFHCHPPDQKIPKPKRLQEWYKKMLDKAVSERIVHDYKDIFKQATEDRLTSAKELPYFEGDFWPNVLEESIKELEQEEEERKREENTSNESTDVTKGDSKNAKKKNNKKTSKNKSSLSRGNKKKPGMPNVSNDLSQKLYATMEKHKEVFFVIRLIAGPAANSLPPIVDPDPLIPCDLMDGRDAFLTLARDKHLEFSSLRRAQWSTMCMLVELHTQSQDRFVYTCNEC

Target: HAT domain of human p300 (Homo sapiens, UniProt Q09472)
Experiment: p300 HAT inhibition assay (3H-Ac-CoA, histone H3 (1-21) peptide)
Type: biochemical

Which “activity reduction relative to compound 12” value (p300 HAT) does the source give for CC(C)(C)c1ccc(-c2cc(CNC3CCNCC3)sc2-c2ccc(C(C)(C)C)cc2)cc1 here?
Its value is ~ 8 fold.

And the IC50 (read-out: IC50 against p300 HAT)?
Its IC50 is 5 µM.
